{
  "source": "patent US7229966B2",
  "about": "“Compositions and methods for enhanced mucosal delivery of Y2 receptor-binding peptides and methods for treating and preventing obesity” (Nastech Pharmaceutical Company Inc., priority 2002, dated 2007)",
  "origin": "cited, not measured here",
  "conditions": "compared with 86% in the original material; cited from earlier work",
  "data": [
    {"substance": "albumin: albumin processed into micro-particles for aerosol delivery (literature)", "values": [
      {"measurement": "monomer retained after processing", "value": "50–75%"}
    ]}
  ]
}
